From publication PMC5326799, “Discovery of Compounds that Positively Modulate the High Affinity Choline Transporter” (Frontiers in Molecular Neuroscience, 2017)

Experiments:
CHT [1] = biological target: T1, CHT (Homo sapiens, UniProt Q9GZV3); settings: HEK293 CHT-WT4, DMSO negative control, 10 μM STS positive control
T1 sequence (Q9GZV3 1-580): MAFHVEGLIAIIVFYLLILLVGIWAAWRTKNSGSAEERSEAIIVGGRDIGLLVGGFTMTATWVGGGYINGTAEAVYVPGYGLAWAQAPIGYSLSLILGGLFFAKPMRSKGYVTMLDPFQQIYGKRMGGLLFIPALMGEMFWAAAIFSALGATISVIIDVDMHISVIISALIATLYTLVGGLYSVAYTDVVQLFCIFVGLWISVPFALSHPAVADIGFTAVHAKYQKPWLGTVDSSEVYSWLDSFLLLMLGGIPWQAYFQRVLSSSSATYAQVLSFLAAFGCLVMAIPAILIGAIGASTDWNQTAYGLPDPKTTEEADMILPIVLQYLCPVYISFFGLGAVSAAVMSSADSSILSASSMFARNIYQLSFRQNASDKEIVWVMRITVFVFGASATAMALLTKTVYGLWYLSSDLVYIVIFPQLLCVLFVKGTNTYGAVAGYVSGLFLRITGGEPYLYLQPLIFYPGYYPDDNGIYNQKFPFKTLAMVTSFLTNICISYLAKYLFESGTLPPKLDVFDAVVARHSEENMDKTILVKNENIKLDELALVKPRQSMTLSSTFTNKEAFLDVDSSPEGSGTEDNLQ

CHT LV-AA mutant = CHT LV-AA mutant (Homo sapiens, UniProt Q9GZV3, L531A/V532A)
Procedure: Uptake of [^3H]Choline (American Radiochemicals; ART 0197; 1,000 Ci/vial; Specific Activity 60–90 Ci/mmol) was measured in HEK cells expressing the high affinity choline transporter (CHT), clone WT4. Cells were plated at 50,000 cells /well in 200 μL culture media on a PDL coated Cytostar-T 96 well plate (Perkin Elmer) 24 h prior to assay. On the day of assay, following two washes and a 30 min pre-incubation at 37°C in 50 μL Na(−) free buffer (0.54 mM KCl, 1.3 mM CaCl2, 0.53 mM MgCl2, 0.4 mM MgSO4, 0.37 mM KH2PO4, 240 mM Sucrose, 4.4 mM Tris-phosphate, 5.5 mM Glycine, 5.6 mM D-Glucose; pH 6.5 with KOH), 25 μL 4X control or test compounds in Na(−) buffer were added to the cells. […] Final DMSO concentration was 0.25%. Following a 30 min incubation at 37°C, 25 μL [^3H]Choline diluted to 320 nM (80 nM final concentration) was added in Na(+) buffer (0.54 mM KCl, 1.3 mM CaCl2, 0.53 mM MgCl2, 0.4 mM MgSO4, 0.37 mM KH2PO4, 138 mM NaCl, 0.28 mM Na2HPO4, 5.5 mM Glycine, 5.6 mM D-Glucose; pH 6.5 with KOH). Plates were sealed with TopSeals (Perkin Elmer) and incubated in darkness for 3 h at room temperature before reading using a Wallac Microbeta, 1 min/well.
A preponderance of literature precedent for measuring high affinity choline uptake (HACU) utilizes a radiometric assay to measure [^3H]Choline transport in preparations.

CHT [2] = biological target: T1, CHT; assay: Live cell anti-FLAG immunolabeling of CHT cell surface localization in CHT-WT4 cells; assay type: cell-based; set-up: expressed in transfected cells; host or cells: HEK-293, lentiviral transduction, single-cell clone CHT-WT4; settings: 1 or 10 μM for 1 h, qualitative observations
Procedure: Media was removed and cells were washed once with HBSS (+/+). 1 μg/mL Anti-FLAG antibody (F3165, Sigma) was diluted in HBSS (+/+) and added to the cellular monolayer for 30 mins. After incubation, cells were washed three times with HBSS (+/+) followed by incubation with 1:5,000 AF488 labeled secondary antibody (LifeTech) diluted in HBSS (+/+) for 30 min. After three washes, cells were fixed with 4% paraformaldehyde in HBSS (+/+) for 15 min. Nuclei were counterstained with the nuclear dye Hoechst. All images were captured and analyzed on an epifluorescent microsope or Cellomics platform.
Thus, understanding compound effects on CHT density and activation state in the synaptic membrane may aid interpretation of the effects on cholinergic neurotransmission. Conventional methods such as cell surface biotinylation present challenges in terms of the requirement of large quantities of cells and low throughput. […] Our CHT overexpression construct contains a FLAG tag on the N-terminus which we sought to utilize with antibody detection in non-permeabilized cells. […] We proceeded to investigate the effect of compound treatment in more detail. Cells were incubated with compounds at 1 or 10 μM for 1 h before immunolabeling and visualization.

CHT [3] = biological target: T1, CHT; assay: SURFE2R solid supported membrane (SSM) electrophysiology on CHT-WT4 membrane fragments; assay type: biochemical; set-up: expressed in transfected cells; host or cells: HEK-293, lentiviral transduction, single-cell clone CHT-WT4; settings: CHT-WT4 membrane preparations

CN[C@@H]1C[C@H]2O[C@@](C)([C@@H]1OC)n1c3ccccc3c3c4c(c5c6ccccc6n2c5c31)C(=O)NC4 [STS, staurosporine, reference compound]
D9-choline uptake % effect 1 μM (CHT [1]; 1 μM compound): 48.4%
D9-choline uptake % effect 10 μM (CHT [1]; 10 μM compound): 87.9%
Stimulatory effect on CHT-mediated transport (CHT LV-AA mutant): no apparent effect
Effect on cell surface localization of CHT (CHT [2]): increase in cell surface localization; also recorded: increased cell surface localization
Effect on CHT current (SURFE2R) (CHT [3]): not able to detect any effect; also recorded: Lack of activity

“Also recorded” adds a separate entry of the source.
